Test results taken from PMC7656562 (Journal of medicinal chemistry, 2019).

Key:
[1] = rat, 1 mg/kg PO
[2] = mouse, 0.3 mg/kg PO

Q: Which results are given for `O=C(Nc1ccc(OC(F)F)nc1)NC1CCN(c2ncnc3c2nc(-c2ccccc2Cl)n3-c2ccc(Cl)cc2)CC1` [Compound 38, 3-{1-[8-(2-Chlorophenyl)-9-(4-chlorophenyl)-9H-purin-6-yl]-piperidin-4-yl}-1-[6-(difluoromethoxy)pyridin-3-yl]urea]?
A: time of plasma max. conc. [1]: 2 h; time of plasma max. conc. [2]: 2 h

Where two headings read alike, the source gives them in different places.
